From PubChem BioAssay (EPA / NIEHS)
Only a part is listed here, and it is no random draw. Results filed as inconclusive are left out. Calls of active or inactive are those of the source. Rule for the calls, unless noted: active = hit-call score of the fitted dose curve at least 0.9, where 1 is the maximum; inactive = score below 0.9.

Protein sequences, listed by entry. Tags and fused reporters are not part of them.
UniProt P37231, whole entry: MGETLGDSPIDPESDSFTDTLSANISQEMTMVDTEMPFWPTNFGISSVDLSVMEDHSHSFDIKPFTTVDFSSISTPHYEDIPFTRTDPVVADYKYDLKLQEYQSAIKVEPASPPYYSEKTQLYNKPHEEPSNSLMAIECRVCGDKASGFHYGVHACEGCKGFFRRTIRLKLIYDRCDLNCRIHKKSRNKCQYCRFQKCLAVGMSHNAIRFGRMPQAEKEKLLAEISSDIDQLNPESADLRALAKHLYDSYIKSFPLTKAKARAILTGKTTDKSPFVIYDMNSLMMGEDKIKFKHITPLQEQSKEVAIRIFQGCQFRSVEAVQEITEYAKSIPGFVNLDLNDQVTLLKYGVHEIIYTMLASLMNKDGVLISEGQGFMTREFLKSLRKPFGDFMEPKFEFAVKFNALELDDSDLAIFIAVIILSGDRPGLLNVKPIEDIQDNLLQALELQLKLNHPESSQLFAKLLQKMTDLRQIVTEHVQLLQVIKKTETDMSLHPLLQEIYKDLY
UniProt P49327, whole entry: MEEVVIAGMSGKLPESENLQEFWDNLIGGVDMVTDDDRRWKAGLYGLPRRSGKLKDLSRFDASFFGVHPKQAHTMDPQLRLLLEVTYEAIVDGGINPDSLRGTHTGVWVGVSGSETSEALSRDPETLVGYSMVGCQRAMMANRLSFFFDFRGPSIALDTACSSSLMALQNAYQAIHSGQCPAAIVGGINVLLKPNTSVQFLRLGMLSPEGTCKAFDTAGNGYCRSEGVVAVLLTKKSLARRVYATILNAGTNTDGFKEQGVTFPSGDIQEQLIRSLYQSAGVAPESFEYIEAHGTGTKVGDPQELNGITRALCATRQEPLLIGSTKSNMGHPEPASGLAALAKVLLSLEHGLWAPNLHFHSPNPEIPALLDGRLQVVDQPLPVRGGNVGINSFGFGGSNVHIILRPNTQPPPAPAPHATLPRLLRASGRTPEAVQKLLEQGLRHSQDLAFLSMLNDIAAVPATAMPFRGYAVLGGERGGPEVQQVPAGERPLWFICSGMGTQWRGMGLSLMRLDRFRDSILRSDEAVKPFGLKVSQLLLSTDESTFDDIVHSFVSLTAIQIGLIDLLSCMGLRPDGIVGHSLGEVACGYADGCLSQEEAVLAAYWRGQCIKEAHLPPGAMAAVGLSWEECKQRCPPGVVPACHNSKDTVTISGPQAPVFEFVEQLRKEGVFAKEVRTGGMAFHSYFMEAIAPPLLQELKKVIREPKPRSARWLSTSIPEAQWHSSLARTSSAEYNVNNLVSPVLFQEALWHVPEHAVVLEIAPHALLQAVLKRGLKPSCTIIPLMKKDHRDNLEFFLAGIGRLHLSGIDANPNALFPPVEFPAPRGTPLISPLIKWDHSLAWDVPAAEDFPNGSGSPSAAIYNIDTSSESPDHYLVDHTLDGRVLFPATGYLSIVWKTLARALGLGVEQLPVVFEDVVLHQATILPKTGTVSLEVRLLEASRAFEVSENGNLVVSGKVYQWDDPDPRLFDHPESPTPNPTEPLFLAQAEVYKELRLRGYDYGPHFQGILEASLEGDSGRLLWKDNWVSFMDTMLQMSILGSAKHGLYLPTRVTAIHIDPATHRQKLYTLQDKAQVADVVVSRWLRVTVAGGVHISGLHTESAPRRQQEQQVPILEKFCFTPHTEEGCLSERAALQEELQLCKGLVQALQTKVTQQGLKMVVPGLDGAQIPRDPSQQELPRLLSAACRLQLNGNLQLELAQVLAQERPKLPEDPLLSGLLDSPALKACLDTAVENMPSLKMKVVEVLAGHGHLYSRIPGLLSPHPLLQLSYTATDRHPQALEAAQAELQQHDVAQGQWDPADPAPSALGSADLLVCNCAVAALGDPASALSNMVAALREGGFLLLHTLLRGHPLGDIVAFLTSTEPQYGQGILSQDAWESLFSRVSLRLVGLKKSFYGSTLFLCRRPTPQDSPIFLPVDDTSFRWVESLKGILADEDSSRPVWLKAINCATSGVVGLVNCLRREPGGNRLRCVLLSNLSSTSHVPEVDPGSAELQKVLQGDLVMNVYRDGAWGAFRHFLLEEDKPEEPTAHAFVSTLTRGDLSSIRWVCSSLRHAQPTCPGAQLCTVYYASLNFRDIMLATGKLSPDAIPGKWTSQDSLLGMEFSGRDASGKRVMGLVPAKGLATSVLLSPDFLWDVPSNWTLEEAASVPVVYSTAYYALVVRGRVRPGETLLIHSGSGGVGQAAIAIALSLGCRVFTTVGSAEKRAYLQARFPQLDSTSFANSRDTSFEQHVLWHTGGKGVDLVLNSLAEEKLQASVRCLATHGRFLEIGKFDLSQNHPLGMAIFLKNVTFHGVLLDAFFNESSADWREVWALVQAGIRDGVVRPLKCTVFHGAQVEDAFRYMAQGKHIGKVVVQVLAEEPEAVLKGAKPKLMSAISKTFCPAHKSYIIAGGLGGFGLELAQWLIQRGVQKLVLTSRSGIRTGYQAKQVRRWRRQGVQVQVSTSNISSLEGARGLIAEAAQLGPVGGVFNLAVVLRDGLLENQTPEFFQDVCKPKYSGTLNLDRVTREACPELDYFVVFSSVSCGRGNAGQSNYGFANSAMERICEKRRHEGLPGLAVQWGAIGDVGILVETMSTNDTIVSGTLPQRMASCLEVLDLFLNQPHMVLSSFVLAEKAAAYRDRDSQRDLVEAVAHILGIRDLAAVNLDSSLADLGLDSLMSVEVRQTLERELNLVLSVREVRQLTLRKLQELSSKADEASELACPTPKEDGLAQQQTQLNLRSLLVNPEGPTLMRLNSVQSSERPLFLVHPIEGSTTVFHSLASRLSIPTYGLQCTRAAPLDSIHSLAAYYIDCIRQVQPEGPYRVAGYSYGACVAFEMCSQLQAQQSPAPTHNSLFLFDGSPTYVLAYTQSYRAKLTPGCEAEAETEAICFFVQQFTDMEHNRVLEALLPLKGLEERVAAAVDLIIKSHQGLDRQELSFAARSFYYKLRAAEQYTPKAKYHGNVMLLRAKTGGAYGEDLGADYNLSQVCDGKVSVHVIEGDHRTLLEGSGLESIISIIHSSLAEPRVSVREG
UniProt P19793, whole entry: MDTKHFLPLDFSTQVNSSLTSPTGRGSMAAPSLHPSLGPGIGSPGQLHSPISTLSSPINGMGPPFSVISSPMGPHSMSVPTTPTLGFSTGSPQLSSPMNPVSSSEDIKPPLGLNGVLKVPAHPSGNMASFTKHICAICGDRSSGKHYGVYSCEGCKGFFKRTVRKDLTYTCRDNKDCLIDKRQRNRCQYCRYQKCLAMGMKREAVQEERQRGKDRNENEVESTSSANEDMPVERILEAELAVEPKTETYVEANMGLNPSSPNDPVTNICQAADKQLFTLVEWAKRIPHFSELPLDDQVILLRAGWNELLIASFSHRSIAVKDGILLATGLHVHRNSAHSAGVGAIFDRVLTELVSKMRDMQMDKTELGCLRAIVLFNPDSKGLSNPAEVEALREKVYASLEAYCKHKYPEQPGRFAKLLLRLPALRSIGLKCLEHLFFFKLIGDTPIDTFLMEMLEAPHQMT

Columns and labels:
[1] = molecular target: Peroxisome proliferator-activated receptor gamma (Homo sapiens) (UniProt P37231); experiment: OT_PPARg_PPARgSRC1_0480: Odyssey Thera (OT) 8-hour Protein-Complementation Assay for Peroxisome Proliferator-activated Receptor Gamma / SRC-1 Co-activator (AID 2283387; active = hit-call score of the fitted dose curve at least 0.9, where 1 is the maximum)
Outline: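 HEK293T transiently transfected with PPARg and SRC-1 fused to Venus YFP fragments, compounds 8 h at 37C. Fixed, Draq5-stained cells imaged; nuclear/cytoplasmic 488 nm fluorescence ratio over at least 350 cells per image; gain fitted versus DMSO.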

[2] = molecular target: Peroxisome proliferator-activated receptor gamma (Homo sapiens) (UniProt P37231); experiment: OT_PPARg_PPARgSRC1_1440: Odyssey Thera (OT) 24-hour Protein-Complementation Assay for Peroxisome Proliferator-activated Receptor Gamma/ SRC-1 Co-activator (AID 2283388; active = hit-call score of the fitted dose curve at least 0.9, where 1 is the maximum)
Outline: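 HEK293T transiently transfected with PPARg/SRC-1 split-Venus YFP fusions 48 h before dosing, then treated 24 h at 37C. Fixed cells imaged; nuclear/cytoplasmic 488 nm fluorescence ratio, gain of signal versus DMSO.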

[3] = read-out: Tumor necrosis factor receptor superfamily member 6 (Homo sapiens) (UniProt P25445); experiment: LTEA_HepaRG_FAS: Life Technologies and Expression Analysis (LTEA) Assay for Fas cell surface death receptor (FAS) using HepaRG (AID 2283447); conditions: actives raise or lower the signal; mRNA level, 48 h
Outline: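 Differentiated HepaRG cells in serum-free induction medium were exposed 48 h to 8 half-log concentrations up to 100 uM in 0.5% DMSO, in duplicate. FAS mRNA was measured by qRT-PCR normalised to ACTB, GAPDH and POLR2A; bidirectional fit versus DMSO.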

[4] = read-out: Fatty acid synthase (Homo sapiens) (UniProt P49327); experiment: LTEA_HepaRG_FASN: Life Technologies and Expression Analysis (LTEA) Assay for Fatty Acid Synthase (FASN) using HepaRG (AID 2283448); conditions: actives raise or lower the signal; mRNA level, 48 h
Outline: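 Differentiated human HepaRG cells were exposed for 48 h in serum-free induction medium to eight half-log concentrations up to 100 uM in 0.5% DMSO, in duplicate. FASN mRNA was quantified by TaqMan qRT-PCR, normalized to ACTB/GAPDH/POLR2A, and fitted bidirectionally against DMSO.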

[5] = read-out: Cyclin D2 (CCND2), CCND2 (gene 894); experiment: LTEA_HepaRG_CCND2: Life Technologies and Expression Analysis (LTEA) Assay for Cyclin D2 (CCND2) using HepaRG (AID 2283449); conditions: actives raise or lower the signal; mRNA level, 48 h;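 note: CCND2 transcript measured by TaqMan qRT-PCR and normalised to three housekeeping genes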
Outline: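 Chemicals in 0.5% DMSO, eight half-log concentrations from 100 uM top, were applied in duplicate for 48 h to human HepaRG cells in serum-free induction medium. CCND2 mRNA by TaqMan qRT-PCR, normalised to ACTB/GAPDH/POLR2A; bidirectional fit versus DMSO.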

[6] = read-out: Cyclin Dependent Kinase Inhibitor 1A (CDKN1A), CDKN1A (gene 1026); experiment: LTEA_HepaRG_CDKN1A: Life Technologies and Expression Analysis (LTEA) Assay for Cyclin Dependent Kinase Inhibitor 1A (CDKN1A) using HepaRG (AID 2283450); conditions: actives raise or lower the signal; mRNA level, 48 h
Experimental: (§1) LTEA_HepaRG is a cell based, multiplexed-readout assay that uses HepaRG, a human liver cell line, with measurements taken at 48 hours after chemical dosing on a 96-well plate.LTEA_HepaRG_CDKN1A is one of 102 assay component(s) measured in the LTEA HepaRG cell culture assay. It is a marker of Cell proliferation, survival, death.Data from the assay component LTEA_HepaRG_CDKN1A was analyzed into 1 endpoint. This assay endpoint, LTEA_HepaRG_CDKN1A, was analyzed with bidirectional fitting relative to DMSO as the negative control and baseline of activity. Using a type of inducible reporter, measures of mRNA induction for gain or loss-of-signal activity can be used to understand regulation of transcription factor activity. To generalize the intended target to other relatable targets, this assay endpoint is annotated to the cell cycle intended target family, where the subfamily is Cell proliferation, survival, death.
(§2) A total of 1060 chemcials from the ToxCast library were tested in eight-point concentration-response experiments. […] Fluidigm's 96.96 Dynamic ArrayTM (Fluidigm, Amsterdam, the Netherlands) technology was used for gene expression analyses by quantitative reverse transcription polymerase chain reaction (qRT-PCR, performed by Quintiles/Expression Analysis, Durham, NC)89. […]

[7] = read-out: Cyclin D1 (CCND1), CCND1 (gene 595); experiment: LTEA_HepaRG_CCND1: Life Technologies and Expression Analysis (LTEA) Assay for Cyclin D1 (CCND1) using HepaRG (AID 2283451); conditions: actives raise or lower the signal; mRNA level, 48 h
Experimental: as §1, with “plate.LTEA_HepaRG_CCND1” for “plate.LTEA_HepaRG_CDKN1A”, “LTEA_HepaRG_CCND1” for “LTEA_HepaRG_CDKN1A”, “LTEA_HepaRG_CCND1,” for “LTEA_HepaRG_CDKN1A,”
as §2

[8] = read-out: catalase (CAT), CAT (gene 847); experiment: LTEA_HepaRG_CAT: Life Technologies and Expression Analysis (LTEA) Assay for catalase (CAT) using HepaRG (AID 2283452); conditions: actives raise or lower the signal; mRNA level, 48 h
Experimental: as §1, with “plate.LTEA_HepaRG_CAT” for “plate.LTEA_HepaRG_CDKN1A”, “Oxidative Stress.Data” for “Cell proliferation, survival, death.Data”, “LTEA_HepaRG_CAT” for “LTEA_HepaRG_CDKN1A”, “LTEA_HepaRG_CAT,” for “LTEA_HepaRG_CDKN1A,”, “catalase” for “cell cycle”, “oxidative stress.” for “Cell proliferation, survival, death.”
as §2, with “experiments. Cell culture and cytotoxicity assays were conducted at Thermo Fisher Scientific's Custom Services facility (Madison, WI).” for “experiments.”

[9] = read-out: flavin-containing dimethylaniline monooxygenases 3 (FMO3), FMO3 (gene 2328); experiment: LTEA_HepaRG_FMO3: Life Technologies and Expression Analysis (LTEA) Assay for flavin-containing dimethylaniline monooxygenases 3 (FMO3) using HepaRG (AID 2283453); conditions: actives raise or lower the signal; mRNA level, 48 h
Outline: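 HepaRG, 48 h exposure, 8-pt half-log series from 100 uM, 0.5% DMSO vehicle, duplicates; FMO3 transcript by Fluidigm TaqMan qRT-PCR, housekeeping-normalized; gain/loss fit vs DMSO.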

[10] = molecular target: Retinoic acid receptor RXR-alpha (Homo sapiens) (UniProt P19793); experiment: OT_NURR1_NURR1RXRa_1440: Odyssey Thera (OT) 24-hour HEK293T Protein Complementation Assay for Nurr1/retinoid X receptor (RXR) (AID 2283386; active = hit-call score of the fitted dose curve at least 0.9, where 1 is the maximum)
Experimental: OT_NURR1_NURR1RXRa_1440 is a cell-based assay that uses HEK293T, a human kidney cell line, with measurements taken at 24 hours after chemical dosing in a 384-well plate.OT_NURR1_NURR1RXRa_1440 is one of one assay component(s) measured or calculated from the OT_NURR1_NURR1RXRa_1440 assay. It is designed to make measurements of protein fragment complementation, a form of binding reporter, as detected with fluorescence intensity signals by Protein-fragment Complementation technology.Data from the assay component OT_NURR1_NURR1RXRa_1440 was analyzed into 1 assay endpoint. This assay endpoint, OT_NURR1_NURR1RXRa_1440, was analyzed in the positive analysis fitting direction relative to DMSO as the negative control and baseline of activity. Using a type of binding reporter, measures of receptor for gain-of-signal activity can be used to understand the binding at the pathway-level as they relate to the gene RXRA. Furthermore, this assay endpoint can be referred to as a primary readout, because the performed assay has only produced 1 assay endpoint. […]
Protein-fragment complementation assay, or PCA, is a method for the identification and quantification of protein-protein interactions. […] Interaction between the bait and the prey proteins brings the fragments of the reporter protein in close proximity to allow them to form a functional reporter protein whose activity can be measured.

Measured: outcome

O=[N+]([O-])c1ccccc1[N+](=O)[O-]
inactive: [1] | [2] | [3] | [4] | [5] | [6] | [7] | [8] | [9]

ClCCOP(OCCCl)OCCCl
inactive: [10] | [1] | [2]
